Experimental data taken from PubChem BioAssay AID760 (NMMLSC, 2007).
The list shows a part of the results, in another mix than the full data. Some results for these compounds are left out of this collection, so the calls shown say nothing about other tests. Activity calls are given as the source filed them.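 Rule for the calls: active = GTP binding activity at least 20 points away from 100%, either lowered or raised; inconclusive = signal likely due to the compound's own green fluorescence; inactive = the rest.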

Biological target: Ras-related protein Rab-2A (Canis lupus familiaris) (UniProt P61105)
Test: Rab2 wt fluorescent GTP binding changes, either direction – biochemical, dog, bead-based flow cytometry, multiplex, primary screen (AID 760);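 note: 0% = beads with excess unlabeled GTP and 100% = no-compound control corrected for plate trend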
Settings: GST-Rab2 wt beads, Bodipy-GTP binding, at 10 µM

| SMILES | GTP binding activity |
| --- | --- |
| CN(C)c1cccc(C(=O)NCC2(N(C)C)CCCCC2)c1 | inactive: 104% |
| O=C(OC1CN2CCC1CC2)C(CO)(c1ccccc1)c1ccccc1 (centres undefined) | inactive: 99% |
| COc1cccc(C(=O)NCC2(N3CCCCC3)CCCCC2)c1 | inactive: 100% |
| C=CCN1CCN(CCOC(=O)C(O)(c2ccccc2)c2ccccc2)CC1 | inactive: 96% |
| CCN1CCCC(OC(=O)C2(O)c3ccccc3C=Cc3ccccc32)C1 (centres undefined) | inactive: 100% |
| CN(C)C1CCCC1OC(=O)C(O)(c1ccccc1)c1ccccc1 (centres undefined) | inactive: 99% |
| Cc1ccccc1C(=O)NCC1(N2CCCCC2)CCCCC1 | inactive: 100% |
| CC(C)N1C(=O)CC2(CCN(CCOC(=O)C(O)(c3ccccc3)c3ccccc3)CC2)C1=O | inactive: 101% |
| O=C(NCC1(N2CCCCC2)CCCCC1)c1cc([N+](=O)[O-])ccc1Cl | inactive: 95% |
